{"sequences": {"note": "Sequences of proteins named here, by UniProt entry; tags and fusion partners are left off.", "UniProt P33535, whole entry": "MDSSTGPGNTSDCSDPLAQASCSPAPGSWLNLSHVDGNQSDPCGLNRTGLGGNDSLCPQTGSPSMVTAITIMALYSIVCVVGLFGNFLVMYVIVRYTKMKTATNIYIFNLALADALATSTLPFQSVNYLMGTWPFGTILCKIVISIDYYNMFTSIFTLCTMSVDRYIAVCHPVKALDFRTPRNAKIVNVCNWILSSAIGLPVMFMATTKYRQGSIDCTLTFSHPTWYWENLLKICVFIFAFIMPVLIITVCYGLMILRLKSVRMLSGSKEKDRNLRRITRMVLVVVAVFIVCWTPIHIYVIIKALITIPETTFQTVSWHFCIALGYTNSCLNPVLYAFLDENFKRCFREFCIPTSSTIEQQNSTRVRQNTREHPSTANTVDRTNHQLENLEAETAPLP", "UniProt P35372, whole entry": "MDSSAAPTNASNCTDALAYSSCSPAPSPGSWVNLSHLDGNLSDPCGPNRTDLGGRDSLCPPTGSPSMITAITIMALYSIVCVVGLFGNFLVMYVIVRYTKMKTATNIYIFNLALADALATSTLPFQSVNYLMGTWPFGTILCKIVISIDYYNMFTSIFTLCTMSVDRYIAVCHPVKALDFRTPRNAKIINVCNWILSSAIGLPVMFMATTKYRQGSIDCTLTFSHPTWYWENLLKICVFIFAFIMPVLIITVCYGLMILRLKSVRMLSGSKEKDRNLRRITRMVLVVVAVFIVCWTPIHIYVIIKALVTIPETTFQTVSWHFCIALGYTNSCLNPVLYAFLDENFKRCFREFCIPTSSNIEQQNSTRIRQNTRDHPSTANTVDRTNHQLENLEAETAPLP"}, "source": "ChEMBL document CHEMBL3758122", "about": "“Multitarget opioid ligands in pain relief: New players in an old game” (Eur J Med Chem, 2016)", "key": {"Mu-type opioid receptor [1]": {"target": "Mu-type opioid receptor (Rattus norvegicus, UniProt P33535)", "assay": "Displacement of [3H]DPDPE from mu opioid receptor in albino Sprague-Dawley rat after 90 mins by liquid scintillation"}, "Mu-type opioid receptor [2]": {"target": "Mu-type opioid receptor (Homo sapiens, UniProt P35372)", "assay": "Binding affinity at mu opioid receptor (unknown origin)"}}}
{"molecule": "C=CCN1C[C@H](C)N([C@@H](c2cccc(O)c2)c2cccc(C(=O)N(C)c3cccc(F)c3)c2)C[C@H]1C", "values": [{"measurement": "Ki", "setting": "Mu-type opioid receptor [1]", "result": 0.18, "unit": "nM"}]}
{"molecule": "C[C@@H](NC(=O)[C@@H](N)Cc1ccc(O)cc1)C(=O)N[C@@H](Cc1ccccc1)C(=O)NCC(=O)N[C@@H](Cc1ccc(O)cc1)C(=O)N1CCC[C@H]1C(=O)N[C@@H](CO)C(N)=O", "values": [{"measurement": "IC50", "setting": "Mu-type opioid receptor [2]", "result": 36.7, "unit": "nM"}]}
